Measurements as given in ChEMBL document CHEMBL4840339, “A naphthyridine-indole ligand for selective stabilization of G-quadruplexes and conformational conversion of hybrid topology” (Bioorg Med Chem, 2021).

Tests used:
Quadruplex DNA [1] = test system: Quadruplex DNA
Quadruplex DNA [2] = test system: Quadruplex DNA; remark: listed apart in the source

## CN(C)CCOc1ccc2c(ccn2-c2ccc3ccc(-n4ccc5cc(OCCN(C)C)ccc54)nc3n2)c1
dsDNA
  Ka: 0.12 10^6/M
Quadruplex DNA [1]
  Ka: 0.36 10^6/M
Quadruplex DNA [2]
  Ka: 0.24 10^6/M
